Our source for the EC50 values is US20080131534A1, “USE OF A PLANT EXTRACT OR PLANT JUICE” (Melbrosin International Produktions- und Vertriebs GesmbH & …, priority 2006, published 2008).

Sequences of proteins named here, by UniProt entry; tags and fusion partners are left off. Residues count along the entry.
UniProt P37231, 238-503 limits assumed: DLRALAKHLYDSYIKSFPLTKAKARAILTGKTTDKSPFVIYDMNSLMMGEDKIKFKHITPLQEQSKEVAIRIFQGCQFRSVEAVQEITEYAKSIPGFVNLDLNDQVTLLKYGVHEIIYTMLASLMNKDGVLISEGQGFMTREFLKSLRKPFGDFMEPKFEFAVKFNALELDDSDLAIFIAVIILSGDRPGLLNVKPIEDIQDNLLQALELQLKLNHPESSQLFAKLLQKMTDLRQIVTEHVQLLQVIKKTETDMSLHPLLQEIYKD

Like-named read-outs stand apart in the source and are kept apart here.

The experiment concerns the target T1, PPAR-gamma (Homo sapiens, UniProt P37231).
T1 construct: purchased Invitrogen
Nature of the experiment: Polar Screen PPAR Competitive Assay (fluorescence polarization ligand binding). (Fluorescence polarisation rises when a labelled molecule tumbles more slowly, as on binding a larger partner.)

Usually EC50 stands for the concentration needed to bring the measured effect to its halfway point.

Turning to Catechin, under “Table 1, tested substances, read-out: EC50”, the EC50 is 85 µM.

For Alliin, under “Table 1, result in words, *tested to a concentration of 0.1 M”, the EC50 result is “does not bind*”.
